Assay results from patent US20240226319A1, “EGFR TARGETING FC ANTIGEN BINDING FRAGMENT-DRUG CONJUGATES” (MERCK PATENT GMBH, priority 2021, published 2024).

Assays:
[1] = test system: EGFR positive cells (MDA-MB-468, A431); test: Cell proliferation assay, EGFR positive cells taken together; type: cell-based, human; conditions: span over MDA-MB-468 and A431, 4 days incubation
Method: Next, we evaluated selective cell killing capabilities of the Fcab-drug conjugates in an in vitro cell proliferation assay (FIG. 7). […] Human cancer cell lines were obtained from the American Type Culture Collection (EGFR positive: MDA MB 468, A431; EGFR negative: MCF 7) and maintained according to standard culture conditions (37° C., 5% CO2, 95% humidity). A431 and MCF 7 cells were cultured in DMEM high glucose medium supplemented with 10% fetal bovine serum (FBS), 2 mM L-glutamine and 1 mM sodium pyruvate. […] For sub-culturing, adherent grown cells were detached by adding 0.05% trypsin-EDTA, diluted with fresh medium and transferred into a new culturing flask. […] Test compounds were added using a D300e digital dispenser (Tecan). […] All wells were normalized to the maximum amount of Tween 20 added. Cell viability was determined after 4 d using Cell Titer Glo reagent (Promega) according to the manufacturer's instructions. Luminescence values were normalized to luminescence of non-treated cells and dose-response was fitted using the asymmetric (five parameter) fitting function of GraphPad Prism (GraphPad Software, Inc.) to derive IC50 values.

[2] = test system: EGFR positive (MDA MB 468 and A431) and EGFR negative (MCF 7) cells; test: Cellular binding analysis by flow cytometry; type: cell-based, human; conditions: 100 nM, 60 min at 4° C., AF488-labeled detection antibody
Method: Cells were incubated with 100 nM of Fcab/C IgG for 60 min at 4° C., washed twice with PBS-1% BSA, incubated for 30 min with 500 nM of AF488-labeled detection antibody (109-546-008, Jackson ImmunoResearch) at 4° C. in darkness, washed twice with PBS-1% BSA, and finally fluorescence intensity was measured applying an Attune NxT flow cytometer (Invitrogen™).

[3] = cited from earlier work

Row | Substance | IC50 [1] [pM] | further results
1 | C-Fab-MMAE | 780 to 990 | 
2 | C-IgG-MMAE | 440 to 500 | 
3 | C-IgG: Cetuximab modified with LC C-terminal (G4S)3-LPETGS sortase A recognition tag, SEQ ID No. 8 and 9 |  | cellular binding [2]: bind selectively EGFR expressing cells
4 | Trastuzumab Fab: Fab fragment of Trastuzumab lacking the Fc portion, literature comparator |  | mouse terminal t1/2 [3]: 4.4 h
